pIC50, pKi: −log10 of the molar value.
Assays:
human P2X7 [1] = biological target: T1, human P2X7 (Homo sapiens (Human), UniProt Q99572); test: Ca2+ flux (FLIPR) in 1321N1 cells expressing recombinant human P2X7; assay type: cell-based;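 further: cells loaded with Calcium-4 dye, preincubated with test compound for 30 min, fluorescence change read 180 s after agonist addition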
human P2X7 [2] = biological target: T1, human P2X7; test: Radioligand binding ([3H]A-804598), human P2X7-1321N1 cell membranes
rat P2X7 = rat P2X7 (Rattus norvegicus (Rat), UniProt Q64663); test: Ca2+ flux (FLIPR) in 1321N1 cells expressing recombinant rat P2X7; assay type: cell-based;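 further: Calcium-4 dye fluorescence change read 180 s after agonist addition, with cells preincubated 30 min with compound and dye in 96-well plates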
[3] = 1321N1 cells, recombinant human P2X7, 250 μM BzATP
[4] = human P2X7-1321N1 membranes, tritiated A-804598
[5] = 1321N1 cells, recombinant rat P2X7, 250 μM BzATP
[6] = tracer tritiated A-804598, 1 hour at 4° C.
[7] = Ca2+ flux, 250 μM BzATP, rat P2X7 1321N1 cells

Amino acid sequences for entries named in this document (tags omitted). A change or cut given only in a name is not applied to a line headed by its entry.
UniProt Q99572: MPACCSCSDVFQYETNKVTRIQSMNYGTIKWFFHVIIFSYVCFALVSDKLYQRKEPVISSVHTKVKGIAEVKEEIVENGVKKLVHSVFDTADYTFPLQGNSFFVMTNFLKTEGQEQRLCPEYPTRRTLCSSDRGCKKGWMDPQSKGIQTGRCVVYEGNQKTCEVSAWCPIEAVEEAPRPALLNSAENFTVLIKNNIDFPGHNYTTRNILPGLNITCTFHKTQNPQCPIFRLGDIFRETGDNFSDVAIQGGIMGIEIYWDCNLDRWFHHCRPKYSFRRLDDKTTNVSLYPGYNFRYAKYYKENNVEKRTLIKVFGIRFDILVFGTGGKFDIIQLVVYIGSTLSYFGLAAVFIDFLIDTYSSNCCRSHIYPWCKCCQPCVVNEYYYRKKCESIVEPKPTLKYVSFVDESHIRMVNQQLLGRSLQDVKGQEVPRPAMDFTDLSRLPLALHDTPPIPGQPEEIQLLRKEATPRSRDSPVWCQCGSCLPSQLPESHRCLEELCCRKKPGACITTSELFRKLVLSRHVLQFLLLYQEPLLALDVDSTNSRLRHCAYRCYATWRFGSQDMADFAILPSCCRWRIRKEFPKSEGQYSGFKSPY
UniProt Q64663: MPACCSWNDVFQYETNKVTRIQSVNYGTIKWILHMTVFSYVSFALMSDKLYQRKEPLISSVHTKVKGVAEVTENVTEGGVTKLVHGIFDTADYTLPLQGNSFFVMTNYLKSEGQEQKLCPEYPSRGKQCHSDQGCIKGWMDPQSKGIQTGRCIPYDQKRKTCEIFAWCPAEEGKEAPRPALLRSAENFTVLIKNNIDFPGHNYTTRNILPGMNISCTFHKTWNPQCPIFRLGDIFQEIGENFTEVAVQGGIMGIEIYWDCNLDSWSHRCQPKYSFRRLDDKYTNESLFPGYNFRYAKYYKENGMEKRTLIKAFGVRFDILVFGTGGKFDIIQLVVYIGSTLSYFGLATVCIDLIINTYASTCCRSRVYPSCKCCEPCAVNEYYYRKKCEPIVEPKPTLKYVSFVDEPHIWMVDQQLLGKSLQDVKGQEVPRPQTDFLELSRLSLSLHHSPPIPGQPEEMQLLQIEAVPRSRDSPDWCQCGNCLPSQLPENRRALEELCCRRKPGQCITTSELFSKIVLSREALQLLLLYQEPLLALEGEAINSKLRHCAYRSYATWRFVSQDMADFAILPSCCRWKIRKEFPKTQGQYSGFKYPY

Row | Structure (SMILES) | pIC50 (human P2X7 [1]; [3]) | pIC50 (rat P2X7; [5]) | also measured
1 | C[C@H]1Cc2c(nnn2-c2ccn[nH]2)CN1C(=O)c1cccc(C(F)(F)F)c1Cl (single isomer, unassigned) [Example 351, (S*)-(2-chloro-3-(trifluoromethyl)phenyl)(6-methyl-1-(1H-pyrazol-5-yl)-6,7-dihydro-1H-[1,2,3]triazolo[4,5-c]pyridin-5(4H)-yl)methanone] | 8.92 | – | pKi (human P2X7 [2]; [4]): 8.00
2 | O=C(c1cccc(C(F)(F)F)c1Cl)N1CCc2c(nnn2-c2cnccn2)C1 [Example 91, 5-{[2-Chloro-3-(trifluoromethyl)phenyl]carbonyl}-1-pyrazin-2-yl-4,5,6,7-tetrahydro-1H-[1,2,3]triazolo[4,5-c]pyridine] | – | 5.60 | –
3 | Cc1cccc(-n2nnc3c2CCN(C(=O)c2cccc(C(F)(F)F)c2F)C3C)n1 (stereo not drawn) [Example 385, (2-fluoro-3-(trifluoromethyl)phenyl)(4-methyl-1-(6-methylpyridin-2-yl)-6,7-dihydro-1H-[1,2,3]triazolo[4,5-c]pyridin-5(4H)-yl)methanone] | – | – | pKi (human P2X7 [2]; [4]): 7.00
4 | Cn1nc(-c2ccccc2)c2c1CN(C(=O)c1cccc(Cl)c1Cl)CC2.Cn1nc2c(c1-c1ccccc1)CCN(C(=O)c1cccc(Cl)c1Cl)C2 [Example 101, 6-[(2,3-Dichlorophenyl)carbonyl]-1-methyl-3-phenyl-4,5,6,7-tetrahydro-1H-pyrazolo[3,4-c]pyridine-6-[(2,3-dichlorophenyl)carbonyl]-2-methyl-3-phenyl-4,5,6,7-tetrahydro-2H-pyrazolo[3,4-c]pyridine (1:1)] | 6.89 | 5.46 | pIC50 (human P2X7 [1]; 250 μM BzATP, Calcium-4 dye): 6.89; pIC50 (rat P2X7; 250 μM BzATP, Calcium-4 dye): 5.46; pKi (human P2X7 [2]; [4]): 7.07; pKi (human P2X7 [2]; [6]): 7.07
5 | CC1c2nnn(-c3ncccn3)c2CCN1C(=O)c1cccc(C(F)(F)F)c1Cl (single isomer, unassigned) [Example 88, (4R*)-5-{[2-Chloro-3-(trifluoromethyl)phenyl]carbonyl}-4-methyl-1-pyrimidin-2-yl-4,5,6,7-tetrahydro-1H-[1,2,3]triazolo[4,5-c]pyridine] | – | – | pKi (human P2X7 [2]; [4]): 7.90; pKi (human P2X7 [2]; [6]): 7.90
6 | CC1c2ncn(-c3ccc(F)cn3)c2CCN1C(=O)c1ccc(F)c(Cl)c1Cl (stereo not drawn) [Example 261, (2,3-dichloro-4-fluorophenyl)(1-(5-fluoropyridin-2-yl)-4-methyl-6,7-dihydro-1H-imidazo[4,5-c]pyridin-5(4H)-yl)methanone] | – | 5.58 | –
7 | Cc1ccnc(-n2nnc3c2CCN(C(=O)c2cccc(OC(F)(F)F)c2)C3C)c1 (single isomer, unassigned) [Example 377, (S*)-(4-methyl-1-(4-methylpyridin-2-yl)-6,7-dihydro-1H-[1,2,3]triazolo[4,5-c]pyridin-5(4H)-yl)(3-(trifluoromethoxy)phenyl)methanone] | – | 4.81 | –
8 | Cc1ccnc(-n2nnc3c2CCN(C(=O)c2cccc(Cl)c2C)C3C)c1 (stereo not drawn) [Example 388, (3-chloro-2-methylphenyl)(4-methyl-1-(4-methylpyridin-2-yl)-6,7-dihydro-1H-[1,2,3]triazolo[4,5-c]pyridin-5(4H)-yl)methanone] | – | – | pKi (human P2X7 [2]; [4]): 7.12
9 | O=C(c1cccc(Cl)c1Cl)N1CCc2c(ncn2-c2ccccc2)C1 [Example 3, (2,3-Dichlorophenyl)(1-phenyl-6,7-dihydro-1H-imidazo[4,5-c]pyridin-5(4H)-yl)methanone] | – | 5.40 | –
10 | O=C(c1cccc(C(F)(F)F)c1Cl)N1CCc2c(ncn2-c2ccccc2)C1CO (stereo not drawn) [Example 30, (5-{[2-Chloro-3-(trifluoromethyl)phenyl]carbonyl}-1-phenyl-4,5,6,7-tetrahydro-1H-imidazo[4,5-c]pyridin-4-yl)methanol] | 5.95 | 5.44 | –
11 | Cc1cccc(-n2nnc3c2CCN(C(=O)c2cccc(C(F)(F)F)c2F)[C@H]3C)n1 (single isomer, unassigned) [Example 387, (S*)-(2-fluoro-3-(trifluoromethyl)phenyl)(4-methyl-1-(6-methylpyridin-2-yl)-6,7-dihydro-1H-[1,2,3]triazolo[4,5-c]pyridin-5(4H)-yl)methanone] | – | – | pKi (human P2X7 [2]; [4]): 7.05
12 | C[C@@H]1Cc2c(nnn2-c2ccn[nH]2)CN1C(=O)c1cccc(C(F)(F)F)c1Cl (single isomer, unassigned) [Example 350, (R*)-(2-chloro-3-(trifluoromethyl)phenyl)(6-methyl-1-(1H-pyrazol-5-yl)-6,7-dihydro-1H-[1,2,3]triazolo[4,5-c]pyridin-5(4H)-yl)methanone] | 5.16 | – | –
13 | O=C(c1cccc(C(F)(F)F)c1Cl)N1CCc2c(nnn2-c2ncccn2)C1 [Example 65, 5-{[2-Chloro-3-(trifluoromethyl)phenyl]carbonyl}-1-pyrimidin-2-yl-4,5,6,7-tetrahydro-1H-[1,2,3]triazolo[4,5-c]pyridine] | 8.39 | – | –
14 | Cc1c(C(=O)N2CCc3c(ncn3-c3ccc(F)cn3)C2)cccc1C(F)(F)F [Example 312, (1-(5-fluoropyridin-2-yl)-6,7-dihydro-1H-imidazo[4,5-c]pyridin-5(4H)-yl)(2-methyl-3-(trifluoromethyl)phenyl)methanone] | – | 5.31 | –
15 | CC1c2ncn(-c3ccccc3)c2CCN1C(=O)c1cccc(C(F)(F)F)c1Cl (stereo not drawn) [Example 12, (2-Chloro-3-(trifluoromethyl)phenyl)(4-methyl-1-phenyl-6,7-dihydro-1H-imidazo[4,5-c]pyridin-5(4H)-yl)methanone] | 8.31 | – | –
16 | CC1c2n[nH]c(-c3cnccn3)c2CCN1C(=O)c1cccc(C(F)(F)F)c1Cl (stereo not drawn) [Example 438, (2-chloro-3-(trifluoromethyl)phenyl)(7-methyl-3-(pyrazin-2-yl)-4,5-dihydro-2H-pyrazolo[3,4-c]pyridin-6(7H)-yl)methanone] | – | – | pIC50 (human P2X7 [1]; Ca2+ flux, 250 μM BzATP, human P2X7 1321N1 cells): 7.86
17 | Cc1cc(-n2nnc3c2CCN(C(=O)c2ccc(Cl)c(C(F)(F)F)c2)C3C)ncc1F (stereo not drawn) [Example 364, (4-chloro-3-(trifluoromethyl)phenyl)(1-(5-fluoro-4-methylpyridin-2-yl)-4-methyl-6,7-dihydro-1H-[1,2,3]triazolo[4,5-c]pyridin-5(4H)-yl)methanone] | 5.91 | – | –
18 | CC1c2n[nH]c(-c3cnccn3)c2CCN1C(=O)c1cccc(Cl)c1Cl (stereo not drawn) [Example 433, (2,3-dichlorophenyl)(7-methyl-3-(pyrazin-2-yl)-4,5-dihydro-2H-pyrazolo[3,4-c]pyridin-6(7H)-yl)methanone] | – | – | pIC50 (rat P2X7; [7]): 5.59
19 | CC1c2n[nH]c(-c3ccc(F)cc3)c2CCN1C(=O)c1cccc(Cl)c1Cl (stereo not drawn) [Example 435, (2,3-dichlorophenyl)(3-(4-fluorophenyl)-7-methyl-4,5-dihydro-2H-pyrazolo[3,4-c]pyridin-6(7H)-yl)methanone] | – | – | pIC50 (rat P2X7; [7]): 5.56
20 | Cc1ccnc(-n2nnc3c2CCN(C(=O)c2cccc(OC(F)(F)F)c2)C3C)c1 (stereo not drawn) [Example 375, (4-methyl-1-(4-methylpyridin-2-yl)-6,7-dihydro-1H-[1,2,3]triazolo[4,5-c]pyridin-5(4H)-yl)(3-(trifluoromethoxy)phenyl)methanone] | – | < 5.00 | –

Now from value to compound, other results behind:

Row | pIC50 (human P2X7 [1]; [3]) | pIC50 (rat P2X7; [5]) | Structure (SMILES) | also measured
21 | 7.12 | – | CC1c2ncn(-c3cnccn3)c2CCN1C(=O)c1cccc(C(F)(F)F)c1F (stereo not drawn) [Example 14, (2-Fluoro-3-(trifluoromethyl)phenyl)(4-methyl-1-(pyrazin-2-yl)-6,7-dihydro-1H-imidazo[4,5-c]pyridin-5(4H)-yl)methanone] | –
22 | – | 7.51 | Cc1ccnc(-n2nnc3c2CCN(C(=O)c2cccc(C(F)(F)F)c2Cl)C3C)c1 (stereo not drawn) [Example 299, (2-chloro-3-(trifluoromethyl)phenyl)(4-methyl-1-(4-methylpyridin-2-yl)-6,7-dihydro-1H-[1,2,3]triazolo[4,5-c]pyridin-5(4H)-yl)methanone] | –
23 | – | 4.83 | Cc1cc(-n2nnc3c2CCN(C(=O)c2cccc(C(F)(F)F)c2Cl)C3C)ncn1 (stereo not drawn) [Example 402, (2-chloro-3-(trifluoromethyl)phenyl)(4-methyl-1-(6-methylpyrimidin-4-yl)-6,7-dihydro-1H-[1,2,3]triazolo[4,5-c]pyridin-5(4H)-yl)methanone] | –
24 | 5.49 | – | C[C@@H]1c2ncn(-c3ccccn3)c2CCN1C(=O)c1cccc(Cl)c1Cl (single isomer, unassigned) [Example 192, (R*)-(2,3-Dichlorophenyl)(4-methyl-1-(pyridin-2-yl)-6,7-dihydro-1H-imidazo[4,5-c]pyridin-5(4H)-yl)methanone] | –
25 | – | 5.57 | Cc1c(C(=O)N2CCc3c(ncn3-c3ccc(F)cn3)C2C)cccc1C(F)(F)F (stereo not drawn) [Example 263, (1-(5-fluoropyridin-2-yl)-4-methyl-6,7-dihydro-1H-imidazo[4,5-c]pyridin-5(4H)-yl)(2-methyl-3-(trifluoromethyl)phenyl)methanone] | –
26 | – | < 5.00 | Cc1ccnc(-n2nnc3c2CCN(C(=O)c2cccc(C(F)(F)F)c2Cl)[C@H]3C)c1 (single isomer, unassigned) [Example 186, (S*)-(2-chloro-3-(trifluoromethyl)phenyl)(4-methyl-1-(4-methylpyridin-2-yl)-6,7-dihydro-1H-[1,2,3]triazolo[4,5-c]pyridin-5(4H)-yl)methanone] | –
27 | 7.18 | – | C[C@@H]1c2ncn(-c3ccc(F)cc3)c2CCN1C(=O)c1cccc(C(F)(F)F)c1Cl (single isomer, unassigned) [Example 46, (4R*)-5-{[2-Chloro-3-(trifluoromethyl)phenyl]carbonyl}-1-(4-fluorophenyl)-4-methyl-4,5,6,7-tetrahydro-1H-imidazo[4,5-c]pyridine] | –
28 | – | 7.40 | Cc1ccnc(-n2nnc3c2CCN(C(=O)c2cccc(C(F)(F)F)c2Cl)[C@@H]3C)c1 (single isomer, unassigned) [Example 185, (R*)-(2-chloro-3-(trifluoromethyl)phenyl)(4-methyl-1-(4-methylpyridin-2-yl)-6,7-dihydro-1H-[1,2,3]triazolo[4,5-c]pyridin-5(4H)-yl)methanone] | –
